{"source": "patent US20240066137A1", "about": "(ONEGENE BIOTECHNOLOGY, published 2024)", "binders": {"B1": {"name": "IL-1RA-Ub (Donor) (other)", "chain": "MRPSGRKSSKMQAFRIWDVNQKTFYLRNNQLVAGYLQGPNVNLEEKIDVVPIEPHALFLGIHGGKMCLSCVKSGDETRLQLEAVNITDLSENRKQDKRFAFIRSDSGPTTSFESAACPGWFLCTAMEADQPVSLTNMPDEGVMVTKFYFQEDE"}}, "target": "T1, IL-1RA acceptor (UniProt P14778 18-569, limits assumed)", "T1 sequence (looked up)": "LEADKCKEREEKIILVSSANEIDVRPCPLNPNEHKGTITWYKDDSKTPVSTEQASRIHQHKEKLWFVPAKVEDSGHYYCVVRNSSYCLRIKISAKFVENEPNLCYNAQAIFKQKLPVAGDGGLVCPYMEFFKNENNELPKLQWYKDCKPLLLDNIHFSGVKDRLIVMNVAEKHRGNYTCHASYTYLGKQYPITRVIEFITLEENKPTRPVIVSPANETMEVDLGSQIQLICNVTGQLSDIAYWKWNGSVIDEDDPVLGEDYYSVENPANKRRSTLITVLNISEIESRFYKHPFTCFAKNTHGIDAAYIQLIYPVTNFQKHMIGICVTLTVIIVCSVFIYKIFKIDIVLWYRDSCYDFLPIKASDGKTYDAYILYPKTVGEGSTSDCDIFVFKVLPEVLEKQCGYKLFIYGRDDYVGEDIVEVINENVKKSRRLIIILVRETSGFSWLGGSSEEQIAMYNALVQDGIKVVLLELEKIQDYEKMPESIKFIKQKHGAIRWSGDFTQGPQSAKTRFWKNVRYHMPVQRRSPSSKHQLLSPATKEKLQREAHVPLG", "assay": "cell-based or functional assay", "data": [{"binder": "B1", "values": [{"measurement": "IC50, NF-κB reporter gene luciferase assay with IL-1β; n = 2", "result": 0.236, "unit": "nM"}]}]}
